According to patent CN114763369A:

How the values were obtained:
[1] = biological target: TNF-α抗原(GenScript，产品目录No.Z01001) (human) (UniProt P01375); assay: cell-based or functional assay
[2] = biological target: TNF-α抗原(GenScript，产品目录No.Z01001) (human) (UniProt P01375); assay: indirect ELISA, TNF-α coated at 1 μg/mL, detection with enzyme-labelled goat anti-human Fab

Row | IC50, 抑制TNF-α对L929细胞杀伤作用 (CCK-8) [1] [nmol/L] | EC50 [2] [nM] | Substance
1 | 0.648 |  | Adalimumab((Fab)2-Fc) (antibody)
2 |  | 0.515 | Adalimumab((Fab)2-Fc) (antibody; other documents disagree on this pair)
